One experiment has as its target FGFR2 (Homo sapiens (Human), UniProt P21802). The experiment in a line: FGFR Enzymatic Assay (FRET peptide phosphorylation), FGFR2. The class given is biochemical. Conditions: read-out: FGFR2 IC50; pre-incubated for 4 hours.
In another experiment the target is FGFR3 enzyme (Homo sapiens (Human), UniProt P22607). The experiment in a line: FGFR Enzymatic Assay (FRET peptide phosphorylation), FGFR3. Conditions: pre-incubated for 4 hours.
The target of the next experiment is FGFR4 (Homo sapiens (Human), UniProt P22455). The experiment in a line: FGFR Enzymatic Assay (FRET peptide phosphorylation), FGFR4. The class given is biochemical. Conditions: read-out: FGFR4 IC50; pre-incubated for 4 hours.
The next experiment deals with FGFR1 (Homo sapiens (Human), UniProt P11362). The experiment in a line: FGFR Enzymatic Assay (FRET peptide phosphorylation), FGFR1. Conditions: read-out: FGFR1 IC50; pre-incubated for 4 hours.

By UniProt entry, the sequences of proteins in these tests, tags left out. Residues count along the entry.
UniProt P21802, 22-821 limits assumed: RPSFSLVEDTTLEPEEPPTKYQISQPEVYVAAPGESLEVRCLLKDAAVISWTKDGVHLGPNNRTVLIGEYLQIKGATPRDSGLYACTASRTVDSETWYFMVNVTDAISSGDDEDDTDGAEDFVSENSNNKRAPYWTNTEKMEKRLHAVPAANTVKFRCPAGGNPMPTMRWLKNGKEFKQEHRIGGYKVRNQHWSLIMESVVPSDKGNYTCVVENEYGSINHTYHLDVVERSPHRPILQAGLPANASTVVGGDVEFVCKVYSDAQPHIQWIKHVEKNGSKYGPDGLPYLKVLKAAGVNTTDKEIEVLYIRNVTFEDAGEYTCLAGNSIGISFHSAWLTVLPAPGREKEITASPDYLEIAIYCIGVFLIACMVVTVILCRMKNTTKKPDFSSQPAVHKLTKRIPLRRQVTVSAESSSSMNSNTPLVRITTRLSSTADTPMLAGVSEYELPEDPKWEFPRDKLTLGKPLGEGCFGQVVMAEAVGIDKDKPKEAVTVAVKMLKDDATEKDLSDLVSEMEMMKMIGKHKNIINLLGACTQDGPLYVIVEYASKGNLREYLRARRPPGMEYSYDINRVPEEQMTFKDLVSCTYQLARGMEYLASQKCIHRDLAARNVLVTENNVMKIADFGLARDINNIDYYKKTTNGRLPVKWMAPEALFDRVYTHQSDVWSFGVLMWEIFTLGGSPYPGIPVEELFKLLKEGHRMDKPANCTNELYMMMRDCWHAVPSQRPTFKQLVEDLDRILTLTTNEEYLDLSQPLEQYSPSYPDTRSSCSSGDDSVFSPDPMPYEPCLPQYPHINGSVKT
UniProt P22607, 23-806 limits assumed: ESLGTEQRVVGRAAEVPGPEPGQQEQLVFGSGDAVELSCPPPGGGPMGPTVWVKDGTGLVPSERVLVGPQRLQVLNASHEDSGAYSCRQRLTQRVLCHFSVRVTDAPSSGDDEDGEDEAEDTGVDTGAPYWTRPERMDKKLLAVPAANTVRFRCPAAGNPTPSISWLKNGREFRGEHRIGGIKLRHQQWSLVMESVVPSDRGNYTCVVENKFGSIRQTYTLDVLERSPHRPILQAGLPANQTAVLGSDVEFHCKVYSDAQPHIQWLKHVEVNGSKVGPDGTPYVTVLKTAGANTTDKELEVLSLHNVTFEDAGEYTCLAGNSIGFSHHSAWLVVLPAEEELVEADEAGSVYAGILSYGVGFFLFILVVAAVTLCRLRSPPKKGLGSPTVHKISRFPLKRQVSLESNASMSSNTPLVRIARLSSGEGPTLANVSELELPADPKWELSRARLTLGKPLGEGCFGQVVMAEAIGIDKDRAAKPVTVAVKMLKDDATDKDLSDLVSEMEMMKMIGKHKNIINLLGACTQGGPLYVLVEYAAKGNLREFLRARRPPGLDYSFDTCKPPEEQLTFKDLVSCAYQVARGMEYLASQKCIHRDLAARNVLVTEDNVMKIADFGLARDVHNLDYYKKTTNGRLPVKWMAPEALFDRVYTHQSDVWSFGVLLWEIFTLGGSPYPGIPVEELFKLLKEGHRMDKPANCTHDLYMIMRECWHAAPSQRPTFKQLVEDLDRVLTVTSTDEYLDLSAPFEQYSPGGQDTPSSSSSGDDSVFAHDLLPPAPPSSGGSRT
UniProt P22455, 22-802 limits assumed: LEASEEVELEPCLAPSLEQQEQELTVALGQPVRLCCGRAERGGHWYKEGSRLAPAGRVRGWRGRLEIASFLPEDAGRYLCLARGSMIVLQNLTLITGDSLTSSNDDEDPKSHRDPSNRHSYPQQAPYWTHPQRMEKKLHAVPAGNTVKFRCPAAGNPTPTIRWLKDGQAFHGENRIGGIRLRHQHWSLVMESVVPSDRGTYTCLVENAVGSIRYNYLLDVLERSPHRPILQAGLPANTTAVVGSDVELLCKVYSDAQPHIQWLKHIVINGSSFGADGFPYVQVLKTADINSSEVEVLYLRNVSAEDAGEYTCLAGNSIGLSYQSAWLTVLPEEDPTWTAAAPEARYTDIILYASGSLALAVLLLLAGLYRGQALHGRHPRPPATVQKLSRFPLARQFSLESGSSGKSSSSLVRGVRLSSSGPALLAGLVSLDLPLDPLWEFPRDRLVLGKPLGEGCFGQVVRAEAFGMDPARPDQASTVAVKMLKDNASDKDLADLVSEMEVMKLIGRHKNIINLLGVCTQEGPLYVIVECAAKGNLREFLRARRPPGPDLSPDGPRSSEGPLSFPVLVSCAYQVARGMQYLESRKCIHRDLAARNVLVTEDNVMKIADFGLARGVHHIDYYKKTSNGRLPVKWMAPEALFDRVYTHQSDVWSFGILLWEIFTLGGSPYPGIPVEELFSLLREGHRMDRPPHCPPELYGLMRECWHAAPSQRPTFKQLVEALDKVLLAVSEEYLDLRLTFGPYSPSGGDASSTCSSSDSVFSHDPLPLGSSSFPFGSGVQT
UniProt P11362, 22-822 limits assumed: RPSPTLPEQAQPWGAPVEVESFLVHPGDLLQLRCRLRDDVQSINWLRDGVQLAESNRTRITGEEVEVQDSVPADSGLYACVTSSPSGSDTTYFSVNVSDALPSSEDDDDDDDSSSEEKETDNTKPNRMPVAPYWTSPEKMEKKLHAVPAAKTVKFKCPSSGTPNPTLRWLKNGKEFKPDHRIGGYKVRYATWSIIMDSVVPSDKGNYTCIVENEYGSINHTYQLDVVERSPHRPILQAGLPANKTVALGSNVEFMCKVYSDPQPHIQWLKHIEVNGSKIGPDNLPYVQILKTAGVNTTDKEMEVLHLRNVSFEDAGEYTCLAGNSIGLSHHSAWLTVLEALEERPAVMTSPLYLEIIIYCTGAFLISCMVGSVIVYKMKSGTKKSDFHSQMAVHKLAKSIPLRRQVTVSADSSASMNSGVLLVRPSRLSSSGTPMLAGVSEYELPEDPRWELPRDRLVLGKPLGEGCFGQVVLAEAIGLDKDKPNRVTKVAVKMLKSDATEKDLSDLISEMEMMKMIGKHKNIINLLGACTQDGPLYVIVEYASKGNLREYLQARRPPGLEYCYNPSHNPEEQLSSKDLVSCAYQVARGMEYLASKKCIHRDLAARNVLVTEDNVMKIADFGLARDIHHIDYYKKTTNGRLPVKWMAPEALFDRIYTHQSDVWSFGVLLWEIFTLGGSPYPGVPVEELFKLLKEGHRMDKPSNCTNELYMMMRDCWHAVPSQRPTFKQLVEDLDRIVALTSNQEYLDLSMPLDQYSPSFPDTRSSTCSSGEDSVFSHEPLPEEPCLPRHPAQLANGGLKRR

Structures are written as SMILES. Some results are limits rather than exact numbers.

By IC50 is commonly meant the midpoint of a concentration-inhibition curve.

Turning to `COc1cc(OC)c(F)c(N2Cc3cnc(-c4cn(C)nc4C)cc3N(c3cnn(C)c3)C2=O)c1F`, the half-inhibitory concentration (IC50) was under 10 nM at FGFR2, under 10 nM on FGFR3 enzyme (read-out: FGFR3 IC50), 30 to 200 nM at FGFR4 and 30 to 200 nM at FGFR1. In addition, the “FGFR1/FGFR3 IC50 ratio” value on FGFR3 enzyme (FGFR3 selectivity) is reported as over 10. In addition, the “FGFR4/FGFR3 IC50 ratio” value on FGFR3 enzyme (FGFR3 selectivity) is over 10.

The values are drawn from US9708318B2, “Bicyclic heterocycles as FGFR4 inhibitors” (Incyte Corporation, priority 2015, dated 2017).
